The chains behind the UniProt entries cited, without tags or fusion partners.
UniProt P21917, whole entry: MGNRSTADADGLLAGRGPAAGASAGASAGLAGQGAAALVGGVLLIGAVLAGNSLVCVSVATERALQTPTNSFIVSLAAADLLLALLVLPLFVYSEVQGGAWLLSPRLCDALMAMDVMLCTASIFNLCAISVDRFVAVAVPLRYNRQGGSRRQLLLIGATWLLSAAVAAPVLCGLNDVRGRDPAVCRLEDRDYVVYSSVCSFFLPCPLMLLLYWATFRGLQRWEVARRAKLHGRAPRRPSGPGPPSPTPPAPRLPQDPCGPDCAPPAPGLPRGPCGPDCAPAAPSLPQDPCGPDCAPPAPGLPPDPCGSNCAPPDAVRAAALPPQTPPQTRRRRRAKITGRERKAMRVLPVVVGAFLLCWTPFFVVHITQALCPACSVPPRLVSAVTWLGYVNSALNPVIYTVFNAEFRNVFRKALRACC

In patent US20060229299A1, “5ht2c Receptor antagonists in the treatment of schizophrenia” (priority 2003, published 2006):

Columns and labels:
[1] = test system: 5-HT2C receptor relative to 5-HT2A and D2 receptors; test: Relative 5-HT2C affinity (formula I, sum of 5-HT2C/5-HT2A and 5-HT2C/D2 affinity ratios)
[2] = target: D4 dopamine receptor (Homo sapiens, UniProt P21917); conditions: cited from earlier work
[3] = test system: 5-HT2A/D2; test: 5-HT2A/D2 receptor affinity ratio; conditions: Table 2; affinity ratio from data of Table 1
[4] = test system: 5-HT2C/5-HT2A; test: 5-HT2C/5-HT2A receptor affinity ratio; conditions: Table 2; affinity ratio from data of Table 1
[5] = test system: 5-HT2C/D2; test: 5-HT2C/D2 receptor affinity ratio; conditions: Table 2; affinity ratio from data of Table 1
[6] = Table 2, sum of affinity ratios from data of Table 1

| SMILES | (2C/2A) + (2C/D2) [1, 6] | further results |
| --- | --- | --- |
| CN(C)CCCN1c2ccccc2Sc2ccc(Cl)cc21 [Chlorpromazine] | 1.75 |  |
| O=C(CCCN1CCC(O)(c2ccc(Cl)cc2)CC1)c1ccc(F)cc1 [Haloperidol] | 1.37 |  |
| OCCOCCN1CCN(C2=Nc3ccccc3Sc3ccccc32)CC1 | 1.73 | D4 affinity value (−logKi) [2]: 5.8^6; (2C/2A) + (2C/D2) ([1]; Table 4B): 1.73 |
| CSc1ccc2c(c1)N(CCC1CCCCN1C)c1ccccc1S2 (stereo not drawn) [Thioridazine] | 1.72 |  |
| CCN1CCCC1CNC(=O)c1cc(S(N)(=O)=O)ccc1OC (stereo not drawn) [Sulpiride] | <1.65 |  |
| CN1CCN(CC/C=C2/c3ccccc3Sc3ccc(S(=O)(=O)N(C)C)cc32)CC1 [Thiothixene] |  | 5-HT2A/D2 [3]: 0.79; 5-HT2C/5-HT2A (2C/2A) [4]: 0.79; 5-HT2C/D2 (2C/D2) [5]: 0.63 |
| Cc1nc2n(c(=O)c1CCN1CCC(c3noc4cc(F)ccc34)CC1)CCCC2 [Risperidone] | 1.69 | (2C/2A) + (2C/D2) ([1]; Table 4B): 1.69 |
